This is an account of results in article doi:10.1101/2021.05.17.444542v1, “Structure Activity Relationship of USP5 Allosteric Inhibitors” (biorxiv, 2021).

For this test, the target named is T1, USP5 ZnF-UBD (USP5 171-290) (Homo sapiens, UniProt P45974).
T1 sequence (P45974 171-290): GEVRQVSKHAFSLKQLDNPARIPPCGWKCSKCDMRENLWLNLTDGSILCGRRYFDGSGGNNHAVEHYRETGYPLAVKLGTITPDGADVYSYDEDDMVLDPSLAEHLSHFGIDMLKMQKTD
Conditions: FITC-ubiquitin displacement, N=1; 100 µM; inhibitor.

For `O=C(O)CCC(=O)c1ccc(S(=O)(=O)N2CCC(c3ccc(F)c(F)c3)CC2)cc1` [compound 1, 1], the “% inhibition” value stood at 73%.
